## AlphaSeq binding of Ab-14 light chain variants to a spike HR2 peptide

Data: MIT Lincoln Laboratory AlphaSeq set, Li et al. 2023, doi:10.1038/s41467-023-39022-2, as distributed in FLAb.

The target is the same throughout: PDVDLGDISGINAS, from the HR2 region of SARS-CoV-2 spike.

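Phage display of a naive human antibody library on the peptide gave the parent. Designed CDR sequences, proposed from the first random library and measured here. Group labels follow the data file (Ctrl: baseline library sampled from a position-specific scoring matrix, with some repeated check sequences; GP: Gaussian process model; HC: hill climbing; Gen: genetic algorithm; Gibbs: Gibbs sampling; a sequence that several methods proposed may carry one label only). In AlphaSeq, yeast of one mating type display the scFv and yeast of the other type display the target. The frequency of each diploid, read from paired DNA barcodes, reflects how well the two displayed proteins bind. Each replicate has its own calibration line, from reference interactions of the BCL2 family. The assay was run in six technical replicates.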

The variants keep the heavy chain, the linker and the frameworks of Ab-14 (scFv order VH, a 15-residue (Gly4Ser)3 linker, VL).
VH: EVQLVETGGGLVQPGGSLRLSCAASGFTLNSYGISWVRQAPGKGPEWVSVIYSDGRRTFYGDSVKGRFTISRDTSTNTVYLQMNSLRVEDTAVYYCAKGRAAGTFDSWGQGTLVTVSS
VL: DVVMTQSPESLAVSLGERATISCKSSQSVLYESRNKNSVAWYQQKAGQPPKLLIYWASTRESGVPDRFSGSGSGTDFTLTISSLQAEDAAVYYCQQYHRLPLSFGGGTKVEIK

Each variant is given by its three light chain CDRs, as the data file delimits them; those of the parent are KSSQSVLYESRNKNSVA, WASTRES, QQYHRLPLS. Variants here have at most six changes. Numbers give log10(Kd / nM), so 0 is 1 nM and 3 is 1 µM. Smaller is tighter. Averages over replicates are reported, and they cover detected replicates only. "no signal" marks a missing value. The strain was present, yet no cells mated with the target were sequenced in any replicate, which points to weak or no binding. Of ten entries with the parent sequence, four were seen in most replicates (averages 0.34 to 2.37), three in one and three in none, so single entries are noisy.

Variant KSLQSQEYESRNKNSVA / HASTRED / QQYHVLPLS [GP_HC] gave -0.20 (6 of 6 replicates; controls 0 of 18). Variant KSGQGDLYESRNKNSVA / GASQRES / QQYHRLPLS [GP_HC] showed 0.07 (6 of 6 replicates; controls 0 of 18). For KLSQSVLYEMRNKNSVA / NASTRMS / QQYHRLPLS [GP_Gen], the assay gave 0.37 (6 of 6 replicates; controls 0 of 18). Variant KLQQSQEYESRNKNSVA / NASTRLS / QQYHRLPLS [GP_Gen] gave 0.09 (6 of 6 replicates; controls 0 of 18). Variant KLSQSNLYESRNKNSVA / NASTRES / QQYHRLPLS [GP_Gen] gave 0.26 (6 of 6 replicates; controls 2 of 18). With KVSQSQLYESRNKNSVA / NASYRES / QQYHRLPLS [GP_Gen] the result was 0.03 (6 of 6 replicates; controls 1 of 18).

For KMSQSWLYESRNKNSVA / NASERES / QQYHRLPLS [GP_Gen], the assay gave -0.56 (6 of 6 replicates; controls 1 of 18). Variant KLMQSCLYESRNKNSVA / NASTRES / QQYHRLPLS [GP_Gen] showed 0.07 (6 of 6 replicates; controls 2 of 18). For KSSQSVLSESRRKNSVA / WASTRES / QQYHRLPLS [Ctrl], the assay gave no signal (0 of 6 replicates; controls 0 of 18). For KLSQSVLMESRNPNSVA / NASTRES / QQYHRLPLS [GP_Gen], the assay gave -0.27 (6 of 6 replicates; controls 1 of 18). Variant KSSQSVLYESRNANSVA / WASTRES / QQHHRLPLS [Ctrl] showed no signal (0 of 6 replicates; controls 0 of 18). For KLSQSVLMESRNKNSVA / SASTRSS / QQYHRLPLS [GP_Gen], the assay gave 0.52 (6 of 6 replicates; controls 1 of 18).

For KLSQSVLYESRNKNNVA / GASTRED / QQYHRLPLS [GP_Gen], the assay gave -0.49 (6 of 6 replicates; controls 0 of 18). Variant KSSISYLYESRNHNSVA / EASTREQ / QQYHRLPLS [GP_HC] gave 0.10 (6 of 6 replicates; controls 1 of 18). Variant HLSWVVLLESRNKNSVA / NASTRES / QQYHRLPLS [GP_HC] showed 0.01 (6 of 6 replicates; controls 0 of 18). With KGSQSVLYESRNKNSVA / DASTRES / QQYHRLPLS [Ctrl] the result was 0.09 (6 of 6 replicates; controls 0 of 18). With KSLWSVPYESNNKNSVA / HASTRED / QQYHRLPLS [GP_HC] the result was 0.32 (6 of 6 replicates; controls 2 of 18). Variant KCKQSSDYESRNKNSVA / NASTREV / QQYHRLPLS [GP_Gibbs] showed -0.15 (6 of 6 replicates; controls 0 of 18).

Variant KFSQSVLYESRLSNSVA / NASTRES / QQYHRLPLS [GP_HC] gave -0.06 (6 of 6 replicates; controls 0 of 18). Variant KSSQSWLYEMDNKNSVA / WASTRES / QQYHRLPLS [Ctrl] showed 1.64 (6 of 6 replicates; controls 0 of 18). Variant SFSQSVLYEGRTKNSVA / NASTRES / QQYHRLPLS [GP_HC] gave 0.12 (6 of 6 replicates; controls 1 of 18). Variant KVSQSYHYESRNKNSVA / GASTRES / QQYHRLPLS [GP_HC] showed 0.45 (6 of 6 replicates; controls 1 of 18). Variant KLYQSHLYESRNKNAVA / NASTRES / QQYHRLPLS [GP_Gen] gave 0.43 (6 of 6 replicates; controls 3 of 18). Variant KSSQSVDYNNRNKNSVA / SASTRES / QPYHRLPFS [Ctrl] showed 1.08 (6 of 6 replicates; controls 0 of 18).

Variant KLSQSVGMGSRNKWSVA / EASTRES / QQYHRLPLS [GP_Gibbs] showed 0.38 (6 of 6 replicates; controls 4 of 18). With KLHQEVGYESRNKNSVA / GASQRES / QQYHRLPLS [GP_Gibbs] the result was 0.78 (6 of 6 replicates; controls 0 of 18). With KSSQSTLYESRNKNSVA / HASTREQ / QQYHRLPLS [GP_HC] the result was 0.63 (6 of 6 replicates; controls 1 of 18). Variant KISQSVLYESRNKNSVA / EASTRCS / QQYHRLPLS [GP_Gen] gave -0.23 (6 of 6 replicates; controls 0 of 18). Variant KMSQSVLYESRNKNSVA / NASTRMS / QQYHRLPLS [GP_Gen] gave 0.43 (6 of 6 replicates; controls 3 of 18). Variant KSSGSWLYESRNKNSVA / GASTREV / QQYHRLPLS [GP_HC] showed 0.64 (6 of 6 replicates; controls 0 of 18).

With KLSGSMLYESRNKNSVA / DASTRES / QQYHRLPLS [GP_Gen] the result was -0.40 (6 of 6 replicates; controls 1 of 18). With KLSQSVLYESRNKNSVA / AASTRVS / QQYHRLPLS [Ctrl] the result was -0.20 (6 of 6 replicates; controls 0 of 18).

The first 5 entries again:

{"CDR-L1": "KSLQSQEYESRNKNSVA", "CDR-L2": "HASTRED", "CDR-L3": "QQYHVLPLS", "group": "GP_HC", "log10 Kd (nM), mean": "-0.20", "replicates with signal": "6 of 6", "signal with controls": "0 of 18"}
{"CDR-L1": "KSGQGDLYESRNKNSVA", "CDR-L2": "GASQRES", "CDR-L3": "QQYHRLPLS", "group": "GP_HC", "log10 Kd (nM), mean": "0.07", "replicates with signal": "6 of 6", "signal with controls": "0 of 18"}
{"CDR-L1": "KLSQSVLYEMRNKNSVA", "CDR-L2": "NASTRMS", "CDR-L3": "QQYHRLPLS", "group": "GP_Gen", "log10 Kd (nM), mean": "0.37", "replicates with signal": "6 of 6", "signal with controls": "0 of 18"}
{"CDR-L1": "KLQQSQEYESRNKNSVA", "CDR-L2": "NASTRLS", "CDR-L3": "QQYHRLPLS", "group": "GP_Gen", "log10 Kd (nM), mean": "0.09", "replicates with signal": "6 of 6", "signal with controls": "0 of 18"}
{"CDR-L1": "KLSQSNLYESRNKNSVA", "CDR-L2": "NASTRES", "CDR-L3": "QQYHRLPLS", "group": "GP_Gen", "log10 Kd (nM), mean": "0.26", "replicates with signal": "6 of 6", "signal with controls": "2 of 18"}

The range of this assay differs from that of the first round, and the authors advise against merging the two. Nonspecific signal, from three strains lacking the peptide, appeared in 4% of pairings of all light chain designs, centred on 2.64 (5% of these signals below 1.59); values are not corrected for it. Also given: how often the same scFv was detected with the empty control strains. The authors' rule: three or more of the six replicates give a measured affinity, fewer mean a poor binder.